From paper PMC9673142, “1,3-Diarylpyrazolyl-acylsulfonamides Target HadAB/BC Complex in Mycobacterium tuberculosis” (ACS Infectious Diseases, 2022) come the findings set out here.

≈ marks a conversion by molar mass, not a printed value.

This experiment concerns Mtb. Description: microbe, parasite or virus in culture. The settings on record: Mycobacterium tuberculosis, read-out: Mtb MBC (Middlebrook 7H9/glucose/ADC/Tx).

In the case of `CS(=O)(=O)NC(=O)CCc1cn(-c2ccc(Br)cc2)nc1-c1ccncc1` [Compound 1], the MBC is 7.6 µM (≈ 3.41 µg/mL).
As for `CS(=O)(=O)NC(=O)CCc1cn(-c2ccc(Cl)cc2)nc1-c1ccc(Cl)cc1` [Compound 2], the figure is 10 µM (≈ 4.38 µg/mL).
